For assay [1], the target named is human recombinant 5-HT2Cedited receptor (Homo sapiens, UniProt P28335, I156V/I160V/N158S). The experiment in a line: Serotonin 5-HT2C in vitro cellular IPOne agonism assay (HTRF). Conditions: read-out: 5-HT2C IPOne Agonism Activity; CHO-K1 cells, agonist mode. In general terms: In TR-FRET formats the signal depends on donor and acceptor labels being close together.

The chains behind the UniProt entries cited, without tags or fusion partners. Residues count along the entry.
UniProt P28335, 33-458 I156V/N158S/I160V limits assumed: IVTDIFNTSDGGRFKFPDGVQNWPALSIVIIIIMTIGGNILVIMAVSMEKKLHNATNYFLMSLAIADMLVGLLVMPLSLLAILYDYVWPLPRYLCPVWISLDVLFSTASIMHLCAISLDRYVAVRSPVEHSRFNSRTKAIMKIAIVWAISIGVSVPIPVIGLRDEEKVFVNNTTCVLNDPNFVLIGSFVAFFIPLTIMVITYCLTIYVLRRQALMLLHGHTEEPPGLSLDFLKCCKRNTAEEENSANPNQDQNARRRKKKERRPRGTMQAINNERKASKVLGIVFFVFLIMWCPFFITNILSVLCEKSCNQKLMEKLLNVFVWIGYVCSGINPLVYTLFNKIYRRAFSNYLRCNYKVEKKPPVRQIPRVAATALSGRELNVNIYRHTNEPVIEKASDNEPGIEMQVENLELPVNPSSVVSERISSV

Assay [2] concerns the target 5-HT2Cedited (accession number AAF35842.1) (Homo sapiens, UniProt P28335, I156V/I160V/N158S). The experiment in a line: Serotonin 5-HT2C in vitro radioligand binding competition assay ([3H]-DOI). Conditions: read-out: 5-HT2C Radioligand Binding Activity; [3H]-DOI radiotracer, membrane extracts.

This is an account of results in patent US20250059184A1 (priority 2021, published 2025).

The structures appear in SMILES notation. pEC50, pIC50: −log10 of the molar value. Where only a bound is given, the exact number is not on record here.

`CN(C)C(C)(C)Cc1ncc2ccccn12` [Compound 19, 1-(imidazo [1,5-a]pyridin-3-yl)-N,N,2-trimethylpropan-2-amine]: the pEC50 in assay [1] was less than 5.00. The pIC50 in assay [2] is 5.00 to 6.00.

Regarding `Cc1cccn2c(CC(C)N)ncc12` (centres unmarked) [Compound 8, 1-(8-methylimidazo[1,5-a]pyridin-3-yl)propan-2-amine], in assay [1], the pEC50 is 6.00 to 7.00. In assay [2], the pIC50 was 6.00 to 7.00.

As for `CN1CCC(c2ncc3ccccn23)C1` (centres unmarked) [Compound 32, 3-(1-methylpyrrolidin-3-yl)imidazo[1,5-a]pyridine], in assay [1], the pEC50 is 5.00 to 6.00. The pIC50 in assay [2] was 5.00 to 6.00.

Consider `Cc1cccn2c(CC(C)N(C)C)ncc12` (centres unmarked) [Compound 21, N,N-dimethyl-1-(8-methylimidazo [1,5-a]pyridin-3-yl)propan-2-amine], for which the pEC50 in assay [1] is 5.00 to 6.00. In assay [2], the pIC50 is 5.00 to 6.00.

`CC(N)Cc1cnc2cc(F)ccn12` (centres unmarked) [Compound 35, 1-(7-Fluoroimidazo[1,2-a]pyridin-3-yl)propan-2-amine]: in assay [1], the pEC50 is less than 5.00. In addition, the pIC50 in assay [2] is less than 5.00.

Consider `CC(N)Cc1cnn2ccccc12` (centres unmarked) [Compound 48, 1-(pyrazolo[1,5-a]pyridin-3-yl)propan-2-amine], for which the pEC50 in assay [1] is 6.00 to 7.00. Moreover, the pIC50 in assay [2] is 6.00 to 7.00.

As for `COc1ccn2c(CC(C)N(C)C)ncc2c1` (centres unmarked) [Compound 16, 1-(7-methoxyimidazo[1,5-a]pyridin-3-yl)-N,N-dimethylpropan-2-amine], in assay [1], the pEC50 was less than 5.00. Moreover, the pIC50 in assay [2] was less than 5.00.

For the compound `CN1CCCC1Cc1ncc2ccccn12` (centres unmarked) [Compound 31, 3-((1-Methylpyrrolidin-2-yl)methyl)imidazo[1,5-a]pyridine], the pEC50 in assay [1] is less than 5.00. In assay [2], the pIC50 is 5.00 to 6.00.

Take `Cc1nc(CCN)c2ccccn12` [Compound 41, 2-(3-methylimidazo[1,5-a]pyridin-1-yl)ethan-1-amine]: the pEC50 in assay [1] was 5.00 to 6.00. In assay [2], the pIC50 was 5.00 to 6.00.

In the case of `CN(C)CCc1cnn2ccccc12` [Compound 49, N,N-dimethyl-2-(pyrazolo[1,5-a]pyridin-3-yl)ethan-1-amine], the pEC50 in assay [1] was 5.00 to 6.00. In assay [2], the pIC50 was 5.00 to 6.00.

As to `Cc1nc(CC(C)N)n2ccc(F)cc12` (centres unmarked) [Compound 5, 1-(7-fluoro-1-methylimidazo [1,5-a]pyridin-3-yl)propan-2-amine], in assay [1], the pEC50 was 6.00 to 7.00. For the same compound, the pIC50 in assay [2] is 6.00 to 7.00.

For the compound `Cc1ccc2cnc(CC(C)N)n2c1` (centres unmarked) [Compound 10, 1-(6-methylimidazo[1,5-a]pyridin-3-yl)propan-2-amine], the pEC50 in assay [1] is 6.00 to 7.00. Moreover, the pIC50 in assay [2] is 6.00 to 7.00.

Regarding `CC(Cc1cnc2ccccn12)N(C)C` (centres unmarked) [Compound 36, 1-(imidazo[1,2-a]pyridin-3-yl)-N,N-dimethylpropan-2-amine], the pEC50 in assay [1] is less than 5.00. In addition, in assay [2], the pIC50 is less than 5.00.

Turning to `COc1ccn2c(CC(C)N)ncc2c1` (centres unmarked) [Compound 3, 1-(7-methoxyimidazo[1,5-a]pyridin-3-yl)propan-2-amine], in assay [1], the pEC50 was 5.00 to 6.00. Further, the pIC50 in assay [2] was less than 5.00.

Regarding `C[C@H](Cc1ncc2ccccn12)N(C)C` [Compound 30, (R)-1-(imidazo[1,5-a]pyridin-3-yl)-N,N-dimethylpropan-2-amine], the pEC50 in assay [1] was less than 5.00. The pIC50 in assay [2] is 5.00 to 6.00.

For `CC(N)Cc1cnc2ccccn12` (centres unmarked) [Compound 33, 1-(imidazo[1,2-a]pyridin-3-yl)propan-2-amine], the pEC50 in assay [1] is less than 5.00. In addition, the pIC50 in assay [2] was less than 5.00.

On to `CC(N)Cc1ncc2cc(F)ccn12` (centres unmarked) [Compound 4, 1-(7-fluoroimidazo[1,5-a]pyridin-3-yl)propan-2-amine], for which the pEC50 in assay [1] was 5.00 to 6.00.

As for `CC(C)NC(C)Cc1ncc2ccccn12` (centres unmarked) [Compound 26, 1-(imidazo [1,5-a]pyridin-3-yl)-N-isopropylpropan-2-amine], the pEC50 in assay [1] is less than 5.00. Also, the pIC50 in assay [2] is 5.00 to 6.00.

Turning to `CC(Cc1ncc2ccccn12)N(C)C` (centres unmarked) [Compound 15, 1-(imidazo [1,5-a]pyridin-3-yl)-N,N-dimethylpropan-2-amine], the pEC50 in assay [1] is 5.00 to 6.00. The pIC50 in assay [2] was 5.00 to 6.00.

Turning to `Cc1nc(CC(C)N(C)C)c2ccc(F)cn12` (centres unmarked) [Compound 46, 1-(6-fluoro-3-methylimidazo [1,5-a]pyridin-1-yl)-N,N-dimethylpropan-2-amine], the pEC50 in assay [1] was 5.00 to 6.00. Moreover, the pIC50 in assay [2] is 5.00 to 6.00.

In the case of `c1ccn2c(C3CCNC3)ncc2c1` (centres unmarked) [Compound 12, 3-(Pyrrolidin-3-yl)imidazo[1,5-a]pyridine], the pEC50 in assay [1] is 5.00 to 6.00. In assay [2], the pIC50 was 5.00 to 6.00.

Regarding `CC(N)Cc1ncn2ccccc12` (centres unmarked) [Compound 40, 1-(imidazo[1,5-a]pyridin-1-yl)propan-2-amine], in assay [1], the pEC50 is 5.00 to 6.00. Also, the pIC50 in assay [2] is 5.00 to 6.00.

For `CN(C)CCc1ncc2ccccn12` [Compound 14, 2-(Imidazo[1,5-a]pyridin-3-yl)-N,N-dimethylethan-1-amine], the pEC50 in assay [1] is 5.00 to 6.00. In addition, the pIC50 in assay [2] was 5.00 to 6.00.

In the case of `CC(Cc1ncn2ccccc12)N(C)C` (centres unmarked) [Compound 44, 1-(imidazo [1,5-a]pyridin-1-yl)-N,N-dimethylpropan-2-amine], the pEC50 in assay [1] was less than 5.00. Besides, the pIC50 in assay [2] is 5.00 to 6.00.

Turning to `c1ccn2c(CC3CCCN3)ncc2c1` (centres unmarked) [Compound 13, 3-(Pyrrolidin-2-ylmethyl)imidazo[1,5-a]pyridine], in assay [1], the pEC50 was less than 5.00. In assay [2], the pIC50 was less than 5.00.

For the compound `CC(Cc1cnc2cc(F)ccn12)N(C)C` (centres unmarked) [Compound 38, 1-(7-Fluoroimidazo[1,2-a]pyridin-3-yl)-N,N-dimethylpropan-2-amine], in assay [1], the pEC50 was less than 5.00. Moreover, the pIC50 in assay [2] was less than 5.00.

As for `C[C@@H](Cc1ncc2ccccn12)N(C)C` [Compound 29, (S)-1-(imidazo[1,5-a]pyridin-3-yl)-N,N-dimethylpropan-2-amine], the pEC50 in assay [1] is less than 5.00. The pIC50 in assay [2] is less than 5.00.

As to `Cc1ccn2c(CC(C)N(C)C)ncc2c1` (centres unmarked) [Compound 22, N,N-dimethyl-1-(7-methylimidazo [1,5-a]pyridin-3-yl)propan-2-amine], the pEC50 in assay [1] is less than 5.00. Also, the pIC50 in assay [2] is less than 5.00.

With `Cc1nc(CC(C)N)c2ccc(F)cn12` (centres unmarked) [Compound 42, 1-(6-fluoro-3-methylimidazo[1,5-a]pyridin-1-yl)propan-2-amine], the pEC50 in assay [1] was 5.00 to 6.00. In addition, the pIC50 in assay [2] is 5.00 to 6.00.

Take `CC(N)Cc1ncc2ccccn12` (centres unmarked) [Compound 2, 1-(imidazo [1,5-a]pyridin-3-yl)propan-2-amine]: the pEC50 in assay [1] was 7.00 to 8.00. For the same compound, the pIC50 in assay [2] was 6.00 to 7.00.

As for `CC(Cc1ncc2cc(F)ccn12)N(C)C` (centres unmarked) [Compound 17, 1-(7-fluoroimidazo[1,5-a]pyridin-3-yl)-N,N-dimethylpropan-2-amine], the pEC50 in assay [1] is less than 5.00. For the same compound, the pIC50 in assay [2] was 5.00 to 6.00.

Regarding `COc1ccn2c(CC(C)N)cnc2c1` (centres unmarked) [Compound 34, 1-(7-methoxyimidazo[1,2-a]pyridin-3-yl)propan-2-amine], the pEC50 in assay [1] was less than 5.00. Besides, the pIC50 in assay [2] is less than 5.00.

With `Cc1nc(CC(C)N)n2ccccc12` (centres unmarked) [Compound 11, 1-(1-methylimidazo[1,5-a]pyridin-3-yl)propan-2-amine], the pEC50 in assay [1] was 6.00 to 7.00. Besides, the pIC50 in assay [2] was 6.00 to 7.00.

On to `CC(Cc1ncc2ccccn12)N1CCOCC1` (centres unmarked) [Compound 28, 4-(1-(Imidazo[1,5-a]pyridin-3-yl)propan-2-yl)morpholine], for which, in assay [1], the pEC50 was less than 5.00. Besides, the pIC50 in assay [2] was less than 5.00.

In the case of `Cc1nc(CC(C)N(C)C)n2ccc(F)cc12` (centres unmarked) [Compound 18, 1-(7-fluoro-1-methylimidazo [1,5-a]pyridin-3-yl)-N,N-dimethylpropan-2-amine], the pEC50 in assay [1] is less than 5.00. Besides, in assay [2], the pIC50 is 5.00 to 6.00.

As to `Cc1ccc2cnc(CC(C)N(C)C)n2c1` (centres unmarked) [Compound 23, N,N-dimethyl-1-(6-methylimidazo [1,5-a]pyridin-3-yl)propan-2-amine], the pEC50 in assay [1] was less than 5.00. The pIC50 in assay [2] is 5.00 to 6.00.

In the case of `Cc1nc(CCN(C)C)c2ccccn12` [Compound 45, N,N-dimethyl-2-(3-methylimidazo [1,5-a]pyridin-1-yl)ethan-1-amine], in assay [1], the pEC50 is 5.00 to 6.00. Besides, the pIC50 in assay [2] was 5.00 to 6.00.

On to `COc1ccn2c(CC(C)N(C)C)cnc2c1` (centres unmarked) [Compound 37, 1-(7-Methoxyimidazo[1,2-a]pyridin-3-yl)-N,N-dimethylpropan-2-amine], for which the pEC50 in assay [1] is less than 5.00. The pIC50 in assay [2] was less than 5.00.

In the case of `CC(Cc1ncc2ccccn12)N1CCCC1` (centres unmarked) [Compound 27, 3-(2-(pyrrolidin-1-yl)propyl)imidazo[1,5-a]pyridine], in assay [1], the pEC50 is less than 5.00. In addition, the pIC50 in assay [2] was 5.00 to 6.00.

With `CC(C)(N)Cc1ncc2ccccn12` [Compound 6, 1-(imidazo [1,5-a]pyridin-3-yl)-2-methylpropan-2-amine], the pEC50 in assay [1] is 5.00 to 6.00. In assay [2], the pIC50 was 5.00 to 6.00.

In the case of `CC(Cc1cnn2ccccc12)N(C)C` (centres unmarked) [Compound 50, N,N-dimethyl-1-(pyrazolo[1,5-a]pyridin-3-yl)propan-2-amine], the pEC50 in assay [1] was 5.00 to 6.00. Besides, the pIC50 in assay [2] is 5.00 to 6.00.

For `CCN(CC)C(C)Cc1ncc2ccccn12` (centres unmarked) [Compound 25, N,N-diethyl-1-(imidazo[1,5-a]pyridin-3-yl)propan-2-amine], in assay [1], the pEC50 is less than 5.00. Besides, the pIC50 in assay [2] was less than 5.00.

Consider `CN(C)CCc1ncn2ccccc12` [Compound 43, 2-(imidazo [1,5-a]pyridin-1-yl)-N,N-dimethylethan-1-amine], for which the pEC50 in assay [1] was less than 5.00. In addition, in assay [2], the pIC50 is 5.00 to 6.00.

With `NCCc1ncn2ccccc12` [Compound 39, 2-(Imidazo[1,5-a]pyridin-1-yl)ethan-1-amine], in assay [1], the pEC50 is 6.00 to 7.00. Moreover, the pIC50 in assay [2] is 6.00 to 7.00.

On to `Cc1ccn2c(CC(C)N)ncc2c1` (centres unmarked) [Compound 9, 1-(7-methylimidazo[1,5-a]pyridin-3-yl)propan-2-amine], for which, in assay [1], the pEC50 was 5.00 to 6.00. In assay [2], the pIC50 was 5.00 to 6.00.
